Test results published in patent publication US5641861A, “μopioid receptor ligands: agonists and antagonists” (Torrey Pines Institute For Molecular Studies, priority 1995, dated 1997).

Sequences of proteins named here, by UniProt entry; tags and fusion partners are left off. A change or cut given only in a name is not applied to a line headed by its entry.
UniProt P33535, whole entry: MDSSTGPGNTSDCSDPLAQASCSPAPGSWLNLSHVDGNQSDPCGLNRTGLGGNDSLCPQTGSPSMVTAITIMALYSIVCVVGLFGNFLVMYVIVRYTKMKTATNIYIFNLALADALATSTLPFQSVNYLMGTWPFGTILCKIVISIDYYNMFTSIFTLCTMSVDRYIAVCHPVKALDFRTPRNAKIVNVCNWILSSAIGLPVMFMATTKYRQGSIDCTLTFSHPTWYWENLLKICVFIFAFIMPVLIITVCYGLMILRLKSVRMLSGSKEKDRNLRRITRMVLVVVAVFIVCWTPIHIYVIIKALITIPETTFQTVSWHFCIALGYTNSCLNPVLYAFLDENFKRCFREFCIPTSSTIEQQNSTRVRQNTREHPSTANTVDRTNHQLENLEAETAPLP
UniProt P41144: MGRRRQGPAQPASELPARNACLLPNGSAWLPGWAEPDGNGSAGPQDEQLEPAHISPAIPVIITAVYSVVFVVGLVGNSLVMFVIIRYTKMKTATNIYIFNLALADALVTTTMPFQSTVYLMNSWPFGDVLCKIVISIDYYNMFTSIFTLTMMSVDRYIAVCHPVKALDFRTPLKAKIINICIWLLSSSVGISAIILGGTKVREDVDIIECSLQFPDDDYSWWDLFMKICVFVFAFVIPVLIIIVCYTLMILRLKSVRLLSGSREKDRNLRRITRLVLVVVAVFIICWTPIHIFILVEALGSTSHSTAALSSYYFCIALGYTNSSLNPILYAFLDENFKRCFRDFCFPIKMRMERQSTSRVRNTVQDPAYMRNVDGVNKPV
UniProt P33533, whole entry: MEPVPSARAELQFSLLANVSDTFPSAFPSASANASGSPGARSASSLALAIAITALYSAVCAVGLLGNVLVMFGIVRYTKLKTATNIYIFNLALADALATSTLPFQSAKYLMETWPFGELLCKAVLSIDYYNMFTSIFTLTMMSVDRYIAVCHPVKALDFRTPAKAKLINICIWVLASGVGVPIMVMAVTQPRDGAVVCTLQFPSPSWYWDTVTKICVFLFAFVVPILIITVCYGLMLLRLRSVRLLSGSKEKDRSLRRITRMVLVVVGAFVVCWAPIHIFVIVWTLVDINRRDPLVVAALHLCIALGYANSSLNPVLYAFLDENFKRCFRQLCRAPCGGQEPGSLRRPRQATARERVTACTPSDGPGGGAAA

How the values were obtained:
Format in all cases: binding
[1] = biological target: T1, μ receptor (Rattus norvegicus, UniProt P33535); assay: Radioreceptor assay selective for the mu receptor ([3H]-DAMGO); conditions: Table 10, rat brain homogenates
T1 construct: radioreceptor assay using rat brain homogenates and [^3 H]-DAMGO as radioligand; tissue Harlan Bioproducts for Science; host or cells: rat brain (cerebellum removed), crude membrane homogenate
Method: Following incubation, the suspensions were centrifuged as above, the resulting pellets resuspended in 100 volumes of Tris buffer and the suspensions combined. Membrane suspensions were prepared and used in the same day.
Binding assays were carried out in polypropylene tubes. […] Bound radioactivity was counted on a Beta-plate Liquid Scintillation Counter (Life Technologies, Gaithersburg, Md.) and expressed in counts per minute (cpm). […] Competitive inhibition assays were performed as above using serial dilutions of the peptide mixtures. IC50 values were then calculated using the software […] (ISI, San Diego, Calif.).

[2] = biological target: T2, κ receptors (Cavia porcellus, UniProt P41144); assay: Radioreceptor assay selective for κ receptors ([3H]-U69,593); conditions: Table 10; [3H]-U69,593 3 nM, guinea pig brain homogenates
T2 construct: tissue homogenates prepared from guinea pig brains (cortex and cerebellum); tissue Harlan Bioproducts for Science; host or cells: guinea pig brain (cortex and cerebellum) homogenate
Method: Assays selective for κ receptors were carried out using [^3 H]-U69,593 (3 nM, specific activity 62 Ci/mmol) as the radioligand and tissue homogenates prepared from guinea pig brains (cortex and cerebellum) using Tris buffer containing 100 μM PMSF, 5 mMMgCl2 and 1 mg/ml BSA, pH 7.4. Sample tubes were incubated for 2.5 hr.

[3] = biological target: T3, δ receptors (Rattus norvegicus, UniProt P33533); assay: Radioreceptor assay selective for δ receptors ([3H]-naltrindole); conditions: Table 10; [3H]-naltrindole 0.5 nM, rat brain homogenates
T3 construct: Radioreceptor assays selective for δ receptors were performed using rat brain homogenates; tissue Harlan Bioproducts for Science; host or cells: rat brain crude membrane homogenate
Method: Radioreceptor assays selective for δ receptors were performed using rat brain homogenates as above and [^3 H]-naltrindole (0.5 nM, specific activity 34.7 Ci/mmol) as radioligand in Tris buffer containing 100 μM phenylmethylsulfonyl fluoride (PMSF), 5 mMMgCl2 and 1 mg/ml bovine serum albumin (BSA), pH 7.4. Samples were incubated for 2.5 hr. Standard curves were prepared using 0.10-3200 nM [^3 H]-D-Pen2, Pen5 ]-enkephalin ([^3 H]-DPDPE).

Trp--Trp--Pro--Arg--NH2 [SEQ ID NO. 69] showed an IC50 [1] of 0.01 µM, an IC50 [2] of 20.6 µM and an IC50 [3] of 17.4 µM.
